Source: ChEMBL document CHEMBL1129527, “Synthesis, chromatographic resolution, and anti-human immunodeficiency virus activity of (+/-)-calanolide A and its enantiomers” (J Med Chem, 1996)

Key:
[1] = system: HIV-1 reverse transcriptase (Human immunodeficiency virus 1); assay: Percent inhibition against DNA -dependent DNA polymerase (DDDP) of HIV-1 RT Nucleic Acid polymerase at dose 200 ug/mL
[2] = system: HIV-1 reverse transcriptase (Human immunodeficiency virus 1); assay: Percent inhibition against RNA-dependent DNA polymerase (RDDP) of HIV-1 RT Nucleic Acid polymerase at dose 200 ug/mL

Compound	inhibition [1] [%]	inhibition [2] [%]
CCCc1cc(=O)oc2c3c(c4c(c12)OC(C)(C)C=C4)O[C@@H](C)[C@H](C)[C@@H]3O [COSTATOLIDE]	52.7	68.1
CCCc1cc(=O)oc2c3c(c4c(c12)OC(C)(C)C=C4)O[C@H](C)[C@@H](C)[C@@H]3O [CALANOLIDE A]	83.9	97.4
